How the values were obtained:
[1] = assay type: in vivo, human; settings: nasal hydromorphone of the invention
breakthrough pain = settings: in vivo; cited from earlier work

## CN1CC[C@]23c4c5ccc(O)c4O[C@H]2C(=O)CC[C@H]3[C@H]1C5 [hydromorphone]
[1]
  extended pain relief effects lasting: ≥ 2 h
Breakthrough pain
  patient scores of pain relief: 3.4 /4
